Source: patent publication EP0863891B1, “(METHYLSULFONYL)PHENYL-2-(5H)-FURANONES AS COX-2 INHIBITORS” (Merck Frosst Canada & Co., priority 1995, dated 1997)

Amino acid sequences for entries named in this document (tags omitted). Residues count along the entry.
UniProt P23219, 24-599: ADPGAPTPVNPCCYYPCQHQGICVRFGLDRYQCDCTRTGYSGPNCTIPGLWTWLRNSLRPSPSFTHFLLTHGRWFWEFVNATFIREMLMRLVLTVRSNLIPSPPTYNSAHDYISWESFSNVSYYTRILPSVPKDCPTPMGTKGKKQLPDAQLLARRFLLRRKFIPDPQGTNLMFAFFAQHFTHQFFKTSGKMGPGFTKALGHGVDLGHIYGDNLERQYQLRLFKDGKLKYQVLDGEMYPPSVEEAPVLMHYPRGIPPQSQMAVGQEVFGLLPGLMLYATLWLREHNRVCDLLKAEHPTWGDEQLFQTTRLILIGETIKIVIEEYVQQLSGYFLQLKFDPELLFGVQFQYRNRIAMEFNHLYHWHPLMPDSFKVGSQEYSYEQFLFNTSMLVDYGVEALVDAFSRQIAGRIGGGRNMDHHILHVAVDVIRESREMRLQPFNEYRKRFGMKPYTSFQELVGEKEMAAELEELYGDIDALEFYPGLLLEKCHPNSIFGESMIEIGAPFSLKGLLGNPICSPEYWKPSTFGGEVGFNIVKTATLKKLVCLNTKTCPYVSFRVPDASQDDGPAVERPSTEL

Biological target: T1, CHO [hCOX-1] (Homo sapiens, UniProt P23219)
T1 construct: expressed in transfected cells; host or cells: CHO cells, stably transfected with pCDNAIII
Assay: Whole cell assay for COX-1 using CHO transfected cell line (PGE2 synthesis)
Type: cell-based
Conditions: Table III; CHO[hCOX-1] cells, 0.5 µM AA

In the case of `CC1(C)OC(=O)C(Sc2ccccc2)=C1c1ccc(S(C)(=O)=O)cc1` [Example 11, 3-Phenylthio-5,5-dimethyl-4-(4-(methylsulfonyl)phenyl)-5H-furan-2-one], the IC50 is reported as > 50 µM.
